Reference: publication PMC4568520, “Interrogation of the intersubunit interface of the open Hv1 proton channel with a probe of allosteric coupling” (Scientific Reports, 2015)
Residue numbers refer to the chain shown, from its start.

Legend:
Assay in all cases: cell-based
Design in all cases: species or system Xenopus oocytes; patch-clamp proton currents, Hill fit of current inhibition, +120 mV, pHi = pHo = 6.0
I127C+βME = target: T1, I127C+βME (Homo sapiens, UniProt Q96D96, I127C); settings: 10 mM βME; apparent Kd, Hill fit of current inhibition; read-out: Kd (µM) (±SE)
T1 construct: gene HVCN1; Hv1 homodimer, cysteines reduced by 10 mM βME
T1 sequence (Q96D96 1-273 I127C): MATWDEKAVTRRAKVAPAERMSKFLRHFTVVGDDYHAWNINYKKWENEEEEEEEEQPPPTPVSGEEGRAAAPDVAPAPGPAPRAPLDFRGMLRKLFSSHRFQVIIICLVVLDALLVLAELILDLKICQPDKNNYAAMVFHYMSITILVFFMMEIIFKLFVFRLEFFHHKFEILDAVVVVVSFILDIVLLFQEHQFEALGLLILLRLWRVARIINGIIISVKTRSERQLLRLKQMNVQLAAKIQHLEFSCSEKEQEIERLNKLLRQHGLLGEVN
Excerpt: (§1) Figure 1 Hv1 inhibition by guanidinothiazole derivatives. (a) Tested compounds: [1] reference Hv1 inhibitor 2-guanidino-benzimidazole (2GBI). 2-guanidino-benzothiazole (GBTA), [3] (5-trifluoromethyl-1,3-benzothiazol-2-yl)guanidine, [4] naphtho[1,2-d][1,3]thiazol-2-yl-guanidine, [5] (4-methyl-1,3-thiazol-2-yl)guanidine, [6] (5-bromo-4-methyl-1,3-thiazol-2-yl)guanidine, [7] famotidine, [8] ethyl 2-guanidino-5-methyl-1,3-thiazole-4-carboxylate, [9] ethyl 2-guanidino-4-methyl-1,3-thiazole-5-carboxylate, [10] ethyl (2-guanidino-4-methyl-1,3-thiazol-5-yl)acetate, [11] 1-[4-(4-chlorophenyl)-1,3-thiazol-2-yl]guanidine, [12] 1-[4-(3,4-dimethoxyphenyl)-1,3-thiazol-2-yl]guanidine. (b) Inhibition of human Hv1 activity by the indicated guanidinothiazoles and reference compound 2GBI (teal column). Hv1 proton currents were measured in inside out patches from Xenopus oocytes in response to depolarizations to +120 mV from a holding potential of −80 mV. Each inhibitor was added to the bath solution at a concentration of 200 μM. pHi = pHo = 6.0. Data are means ± S.E.M. (n ≥ 4). (c) Concentration dependences of inhibition of human Hv1 by compounds [2], [3], [6], and [11]. Each point represents the average inhibition from 3 to 15 measurements ± S.D. Curve lines are Hill fits used to obtain the apparent Kd values reported in Supplementary Table 1. Hill coefficients were determined from fits reported in Supplementary Fig. 1: h(1) = 0.975 ± 0.024 h(2) = 1.306 ± 0.033, h(3) = 1.25 ± 0.07, h(6) = 1.109 ± 0.040, h(11) = 1.179 ± 0.036 (see methods). Apparent dissociation constants (Kd) for the different combinations of channel and inhibitor (Supplementary Table 1) were determined by fitting the concentration dependences of inhibition (average %inhib values) with the Hill equation:  Figure 6 Open-state coupling is mediated by direct physical interaction between outer ends of S1 segments in the two subunits. (a) Schematics of mutant Hv1 dimers and linked dimers designed to study how intersubunit cysteine crosslinking affects GBTA binding cooperativity. (b–d) Concentration dependences of inhibition of the indicated constructs by 2GBI (b,d) and GBTA (c,e) in the presence or absence of 10 mM βME in the extracellular solution. Each point represents the average inhibition from 3 to 10 measurements ± S.D. Curve lines are Hill fits used to obtain Kd values (see Supplementary Table 1). Hill coefficients in inset histograms were determined from fits reported in Supplementary Figs 3 and 4. Asterisks in (c,e), indicate statistically significant differences between different conditions of GBTA inhibition (p < 0.0001, see methods). Corresponding differences for 2GBI inhibition [(b,d)] were not statistically significant (p > 0.05).

D112E I127C+βME = target: T2, D112E I127C+βME (Homo sapiens, UniProt Q96D96, D112E/I127C); settings: 10 mM βME; apparent Kd, Hill fit of current inhibition; read-out: Kd (µM) (±SE)
T2 construct: gene HVCN1; Hv1 homodimer, cysteines reduced by 10 mM βME
T2 sequence (Q96D96 1-273 D112E/I127C): T1 sequence (Q96D96 1-273 I127C) with D112E
Excerpt: as §1

[1] = target: T3, human Hv1 (wild type, dimeric) E119A (Homo sapiens, UniProt Q96D96, E119A); settings: apparent Kd, Hill fit of current inhibition; read-out: Kd (µM) (±SE)
T3 construct: gene HVCN1; full-length human Hv1 homodimer, 273 residues; pGEMHE cRNA in Xenopus laevis oocytes, inside-out patches
T3 sequence (Q96D96 1-273 E119A): T1 sequence (Q96D96 1-273 I127C) with E119A, C127I
Excerpt: as §1

[2] = target: T4, human Hv1 (wild type, dimeric) D123R (Homo sapiens, UniProt Q96D96, D123R); settings: apparent Kd, Hill fit of current inhibition; read-out: Kd (µM) (±SE)
T4 construct: gene HVCN1; full-length human Hv1 homodimer, 273 residues; pGEMHE cRNA in Xenopus laevis oocytes, inside-out patches
T4 sequence (Q96D96 1-273 D123R): T1 sequence (Q96D96 1-273 I127C) with D123R, C127I
Excerpt: as §1

[3] = target: T5, human Hv1 (wild type, dimeric) K125A (Homo sapiens, UniProt Q96D96, K125A); settings: apparent Kd, Hill fit of current inhibition; read-out: Kd (µM) (±SE)
T5 construct: gene HVCN1; full-length human Hv1 homodimer, 273 residues; pGEMHE cRNA in Xenopus laevis oocytes, inside-out patches
T5 sequence (Q96D96 1-273 K125A): T1 sequence (Q96D96 1-273 I127C) with K125A, C127I
Excerpt: as §1

[4] = target: T6, S181A Hv1NCCiVSP (monomer) (Homo sapiens, UniProt Q96D96, S181A); settings: apparent Kd, Hill fit of current inhibition; read-out: Kd (µM) (±SE)
T6 construct: gene HVCN1; monomeric chimera: CiVSP 1-113 + Hv1 97-227 + CiVSP 240-576, as T7, with S181A
T6 sequence (Q96D96 1-273 S181A): T1 sequence (Q96D96 1-273 I127C) with C127I, S181A
Excerpt: as §1

D112E I127C-C = target: T7, D112E I127C-C (Homo sapiens, UniProt Q96D96, D112E/I127C); settings: crosslinked, no βME; apparent Kd, Hill fit of current inhibition; read-out: Kd (µM) (±SE)
T7 construct: gene HVCN1; Hv1 homodimer, intersubunit cysteine crosslink (no βME)
T7 sequence (Q96D96 1-273 D112E/I127C): T1 sequence (Q96D96 1-273 I127C) with D112E
Excerpt: as §1

[5] = target: T8, human Hv1 (wild type, dimeric) D123A (Homo sapiens, UniProt Q96D96, D123A); settings: apparent Kd, Hill fit of current inhibition; read-out: Kd (µM) (±SE)
T8 construct: gene HVCN1; full-length human Hv1 homodimer, 273 residues; pGEMHE cRNA in Xenopus laevis oocytes, inside-out patches
T8 sequence (Q96D96 1-273 D123A): T1 sequence (Q96D96 1-273 I127C) with D123A, C127I
Excerpt: as §1

- Kd (I127C+βME): 47.6 ± 3.5 µM
- Kd (D112E I127C+βME): 206 ± 13 µM
- Kd [1]: 34.4 ± 2.9 µM
- Kd [2]: 71.5 ± 4.1 µM
- Kd [3]: 29.4 ± 1.7 µM
- Kd [4]: 125 ± 6 µM
- Kd (D112E I127C-C): 168 ± 9 µM
- Kd [5]: 35.3 ± 3.5 µM
SMILES: N=C(N)Nc1nc2ccccc2[nH]1 [compound 1, 2-Guanidino-benzimidazole]
